Literature values in US20120178771A1, “Oral Pharmaceutical Compositions of Buprenorphine and Method of Use” (priority 2008, published 2012).

Conditions: principal metabolite of buprenorphine; Kuhlman et al, Addiction 1998

## CO[C@]12CC[C@@]3(C[C@@H]1[C@](C)(O)C(C)(C)C)[C@H]1Cc4ccc(O)c5c4[C@@]3(CCN1)[C@H]2O5
  elimination half-life: approximately 57 hours
